# Test results published in doi:10.1101/2023.06.19.545627v1, “Pharmacokinetic profile of the synthetic mu-opioid receptor agonist [Lys7]Dermorphin-IRDye®800CW and its feasibility as a biomarker for opioid use disorder” (bioRxiv, 2023).
# By UniProt entry, the sequences of proteins in these tests, tags left out.
# UniProt P35372, whole entry, looked up: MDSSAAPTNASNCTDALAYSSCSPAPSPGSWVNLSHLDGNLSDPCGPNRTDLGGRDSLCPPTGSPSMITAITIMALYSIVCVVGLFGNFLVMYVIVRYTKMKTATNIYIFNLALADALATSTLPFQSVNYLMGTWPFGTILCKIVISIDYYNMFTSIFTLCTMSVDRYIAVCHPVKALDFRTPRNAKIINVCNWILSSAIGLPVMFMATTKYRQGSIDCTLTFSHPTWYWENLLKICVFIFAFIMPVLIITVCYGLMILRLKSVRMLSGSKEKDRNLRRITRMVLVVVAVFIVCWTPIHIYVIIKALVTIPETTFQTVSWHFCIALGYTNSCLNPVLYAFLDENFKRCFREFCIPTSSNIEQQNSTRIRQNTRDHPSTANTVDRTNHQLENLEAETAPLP
# Target: T1, mu-opioid receptor (Homo sapiens, UniProt P35372)
# T1 construct: host or cells: CHO-K1
# Assay type: binding
# Conditions: read-out: IC-50 of competitor against DRM-800
substance,measurement,value
[Lys7]Dermorphin,IC50,0.04 µM
